According to patent US5405869A, “Anti-tumor platinum complexes” (Istituto Nazionale per la Ricerca sul Cancro, priority 1991, dated 1995):

Tests used:
breast MCF-7 cells = test system: breast MCF-7 cells
Experimental: (§1) The evaluation of the cytotoxic activities of the compounds (1) was carried out "in vitro" measuring, according to known methods, the inhibition of the colony formation, the cell viability (Trypan blu) and the incorporation of tritiated thymidine in tumoral and normal cells.

breast MDA cells = test system: breast MDA cells
Experimental: as §1

lung (A549) cells = test system: lung (A549) cells
Experimental: as §1

[1] = test system: melanoma (SKMEL-26) cells
Experimental: as §1

microcytoma (GCLI) cells = test system: microcytoma (GCLI) cells
Experimental: as §1

[2] = test system: non tumoral stabilized EBV+ cell line B95-8; details: EBV+ B95-8 (marmoset)
Experimental: as §1

[3] = test system: non tumoral stabilized EBV+ cell lines from patients affected by acute or chronic mononucleosis; details: EBV+ lines from patients with acute or chronic mononucleosis
Experimental: as §1

ovary (SW626) cells = test system: ovary (SW626) cells
Experimental: as §1

[4] = in vivo
[5] = after a cumulative dose of 1200 mg/kg, 8th day after the end of the treatment

Question: Which cytotoxic activity (breast MCF-7 cells) does the source give for “cis-diamino-chloro-(4-amino)benzoate-platinum(II) hydrochloride [Compound 1A]” here?
Answer: The cytotoxic activity was “significant cytotoxic activity”.

Question: What about the cytotoxic activity (breast MDA cells) of the same substance?
Answer: The cytotoxic activity was “significant cytotoxic activity”.

Question: And the cytotoxic activity (lung (A549) cells)?
Answer: Its cytotoxic activity is “significant cytotoxic activity”.

Question: And the cytotoxic activity [1]?
Answer: The cytotoxic activity was “significant cytotoxic activity”.

Question: And the cytotoxic activity (microcytoma (GCLI) cells)?
Answer: The cytotoxic activity was “significant cytotoxic activity”.

Question: And the cytotoxic activity [2]?
Answer: Its cytotoxic activity is “significant cytotoxic activity”.

Question: And the cytotoxic activity [3]?
Answer: Its cytotoxic activity is “significant cytotoxic activity”.

Question: What about the cytotoxic activity (ovary (SW626) cells) of the same substance?
Answer: Its cytotoxic activity is “significant cytotoxic activity”.

Question: What about the water solubility of the same substance?
Answer: Its water solubility is 7000 µg/mL.

Question: And the LD50 [4]?
Answer: Its LD50 is “higher than 1200 mg/kg”.

Question: And the BUN value [5]?
Answer: Its BUN value is 36±8 mg/100 ml.

Question: For “cis-diamino-chloro-(4-amino)benzoate-platinum(II) mono methanol solvate [Compound 1C]”, which water solubility is on record?
Answer: Its water solubility is over 3000 µg/mL.

Question: What about the LD50 [4] of the same substance?
Answer: The LD50 was “higher than 240 mg/kg”.

Question: With “aquo-cis-diamino-chloro-(4-amino)benzoate-platinum(II) [Compound 1B]” as the substance, how does the LD50 [4] read?
Answer: The LD50 was “higher than 240 mg/kg”.
